These results are taken from PubChem BioAssay AID588382 (National Center for Advancing Translational Sciences (NCATS), 2011).

The entries are a selection whose mix differs from that of the whole data set. Inconclusive results are not listed. Calls of active or inactive are those of the source. The call rests on the fitted dose curve; in most records, active means well fitted cell-killing curve with a large enough effect; inconclusive means small, poorly fitted or top-dose-only effect, or effect the other way; inactive means flat fitted curve, though single readings scatter.
On the % scale 0 is the no-effect control and ±100 the full control effect; potency means the concentration at half of the fitted maximal effect.

The assay can be described thus: qHTS of small molecules that selectively kill Giardia lamblia: Hit Validation in HepG2 cytotox.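 Further: compound exposure lasted overnight at 37 deg C; nearly all actives have a fitted effect of over 55% in size.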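 On activity change, negative = cytotoxicity: viability measured as cellular ATP by ATPLite luminescence.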 As to conditions: cell viability; Potency: HepG2 cytotoxicity; series mostly up to 38.3 µM; activity change, negative = cytotoxicity: at the top concentration. An excerpt: Giardia lamblia is a human pathogen afflicting impoverished nations, and the most common cause of outbreaks of diarrhea in the United States. Giardia has been classified by the CDC as a category B bioterrorism organism. The favored anti giardiasis drugs in the US are metronidazole or tinidazole, compounds that have undesirable side effects. Moreover, increasing resistance to drug regimes and recurrence are a concern. It is thus clear that alternative drug treatments are needed.
In a collaboration between the University of Maryland, College Park and the NIH Chemical Genomics Center, a bioluminescence Giardia viability assay based on the trophozoites' ATP content was developed. This assay is suitable for high throughput screening, and miniaturized the assay for compound screening in 1536-well plates. The goal of the project is to screen the Molecular Libraries Small Molecule Repository (MLSMR) for compounds that selectively kill Giardia trophozoites. This counterscreen looks at the toxicity of the compounds against the human HepG2 cell line.
NIH Chemical Genomics Center [NCGC]
NIH Molecular Libraries Probe Centers Network [MLPCN]
Assay Submitter (PI): Osnat Herzberg, University of Maryland, College Park, MD.
4 uL of HepG2 cells ae dispensed into white 1536-well plates. They are incubated overnight at 37 deg C and then 23 nL of compounds are transferred to the wells with a pintool. Plates are incubated overnight at 37 deg C. 2 uL of ATPLite is added and the plates are incubated for 15 min at room temperature before they are read on the ViewLux for luminiescence.
(In general: Quantitative high-throughput screening tests each substance at several concentrations.)
In the case of `O=C(Nc1ccncc1[N+](=O)[O-])c1ccc([N+](=O)[O-])cc1[N+](=O)[O-]`, the “activity change, negative = cytotoxicity” value was inactive: 8.43%.

For `COc1cc(I)ccc1[As](=O)(O)O`, the “activity change, negative = cytotoxicity” value was inactive: 10.7%.

Turning to `O=[As](O)(c1cccs1)c1cccs1`, the “activity change, negative = cytotoxicity” value is inactive: 13%. Same read-out and setting: under `Nc1cccc([As](=O)(O)c2ccccc2)c1` stands inactive: -8.38%; under `Nc1ccc([As](=O)(O)c2ccc([N+](=O)[O-])cc2)cc1`, inactive: 21.1%.

In the case of `O=c1c2cc([N+](=O)[O-])ccc2[nH]c2c([N+](=O)[O-])cc([N+](=O)[O-])cc12`, the Potency was active: 1.65 µM. With `O=[N+]([O-])c1cc([N+](=O)[O-])c2nc[nH]c2c1`, the “activity change, negative = cytotoxicity” value was inactive: 9.25%. On the same count and under the same terms, under `NC(=O)c1cc([N+](=O)[O-])cc([N+](=O)[O-])c1N` stands inactive: 18.5%.
